Measurements: US20030148921

Assays:
[1] = tested on: GPAR4^R47S activation site mutant fusion protein
[2] = tested on: GPAR2^R34S activation site mutant fusion protein
[3] = tested on: galactosidase-PAR4 (GPAR4) fusion protein
[4] = tested on: galactosidase-PAR2 (GPAR2) fusion protein
[5] = tested on: activation site mutant fusion protein GPAR1^R45S
[6] = tested on: galactosidase-PAR3 (GPAR3) fusion protein
[7] = tested on: GPAR3^K37S activation site mutant fusion protein
[8] = tested on: galactosidase-PAR1 (GPAR1) fusion protein [β-galactosidase: P00722]

| Substance | β-Galactosidase release rate (mmol β-Galactosidase/(molProtease * min)) [1] | β-Galactosidase release rate (mmol β-Galactosidase/(molProtease * min)) [2] | β-Galactosidase release rate (mmol β-Galactosidase/(molProtease * min)) [3] | β-Galactosidase release rate (mmol β-Galactosidase/(molProtease * min)) [4] | β-Galactosidase release rate (mmol β-Galactosidase/(molProtease * min)) [5] | β-Galactosidase release rate (mmol β-Galactosidase/(molProtease * min)) [6] | β-Galactosidase release rate (mmol β-Galactosidase/(molProtease * min)) [7] | β-Galactosidase release rate (mmol β-Galactosidase/(molProtease * min)) [8] | amount of thrombin needed to elicit a response, against GPAR1 [5] | initial rate, against GPAR1 [6] |
| --- | --- | --- | --- | --- | --- | --- | --- | --- | --- | --- |
| bovine type II chymotrypsin | 8.4 | 4.3 | 3.4 | 5.6 | 78 | 4.7 | 4.5 | 58 | – | – |
| human high-molecular-mass urokinase | ≤ 0.01 | ≤ 0.01 | ≤ 0.01 | ≤ 0.01 | ≤ 0.01 | ≤ 0.01 | ≤ 0.01 | ≤ 0.01 | – | – |
| human thrombin | 0.02 | ≤ 0.01 | 4.3 | 0.01 | 0.07 | 410 | 3.4 | 2600 | More than 30000 times more thrombin was needed to elicit a response with GPAR1^R45S | about six times lower than for GPAR1 |
